Laboratory results: ChEMBL document CHEMBL1126929, “Syntheses of 2,5- and 2,6-difluoronorepinephrine, 2,5-difluoroepinephrine, and 2,6-difluorophenylephrine: effect of disubstitution with fluorine on adrenergic activity” (J Med Chem, 1993)

Sequences of proteins named here, by UniProt entry; tags and fusion partners are left off. A change or cut given only in a name is not applied to a line headed by its entry.
UniProt P15823: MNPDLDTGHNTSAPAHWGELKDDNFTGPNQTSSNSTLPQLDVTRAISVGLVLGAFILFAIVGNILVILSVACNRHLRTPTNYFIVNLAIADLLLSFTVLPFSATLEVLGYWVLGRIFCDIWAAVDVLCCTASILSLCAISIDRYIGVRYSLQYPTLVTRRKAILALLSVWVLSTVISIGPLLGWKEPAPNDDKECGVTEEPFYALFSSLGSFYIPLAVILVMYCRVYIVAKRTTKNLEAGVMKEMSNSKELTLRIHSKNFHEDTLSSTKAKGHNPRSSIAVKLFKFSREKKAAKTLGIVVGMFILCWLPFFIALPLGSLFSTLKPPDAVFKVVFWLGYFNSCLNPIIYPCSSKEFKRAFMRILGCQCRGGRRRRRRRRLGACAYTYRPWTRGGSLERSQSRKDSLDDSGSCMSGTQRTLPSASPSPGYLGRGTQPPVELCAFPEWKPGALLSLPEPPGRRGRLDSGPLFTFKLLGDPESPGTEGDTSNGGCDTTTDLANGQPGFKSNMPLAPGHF
UniProt P23944: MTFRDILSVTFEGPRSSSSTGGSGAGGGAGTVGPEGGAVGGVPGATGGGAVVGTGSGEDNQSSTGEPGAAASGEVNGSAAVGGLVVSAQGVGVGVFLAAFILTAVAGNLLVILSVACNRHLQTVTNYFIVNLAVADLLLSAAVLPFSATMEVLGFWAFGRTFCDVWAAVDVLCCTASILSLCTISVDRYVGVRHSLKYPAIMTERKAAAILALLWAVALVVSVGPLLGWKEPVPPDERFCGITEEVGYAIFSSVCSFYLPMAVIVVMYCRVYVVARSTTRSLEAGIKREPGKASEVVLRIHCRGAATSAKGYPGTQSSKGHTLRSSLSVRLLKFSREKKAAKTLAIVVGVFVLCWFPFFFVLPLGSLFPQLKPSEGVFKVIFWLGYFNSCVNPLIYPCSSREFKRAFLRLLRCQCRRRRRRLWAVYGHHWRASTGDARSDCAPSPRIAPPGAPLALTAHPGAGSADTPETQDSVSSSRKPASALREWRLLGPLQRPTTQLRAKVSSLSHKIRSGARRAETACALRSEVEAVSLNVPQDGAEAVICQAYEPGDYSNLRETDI
UniProt P43140: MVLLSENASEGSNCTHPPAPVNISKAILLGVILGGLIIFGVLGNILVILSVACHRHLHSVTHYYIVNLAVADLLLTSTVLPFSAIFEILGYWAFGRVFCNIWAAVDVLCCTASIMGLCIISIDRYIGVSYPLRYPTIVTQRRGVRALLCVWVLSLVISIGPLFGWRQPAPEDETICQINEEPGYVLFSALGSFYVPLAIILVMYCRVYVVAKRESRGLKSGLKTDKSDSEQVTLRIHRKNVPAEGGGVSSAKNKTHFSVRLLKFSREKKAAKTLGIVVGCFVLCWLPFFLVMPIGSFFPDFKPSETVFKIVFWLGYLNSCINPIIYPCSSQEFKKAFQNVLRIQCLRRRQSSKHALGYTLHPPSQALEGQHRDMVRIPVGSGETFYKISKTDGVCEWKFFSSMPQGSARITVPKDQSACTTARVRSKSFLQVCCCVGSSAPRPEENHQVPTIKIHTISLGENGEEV

Target: Adrenergic receptor alpha-1 (Rattus norvegicus, UniProt P15823+P23944+P43140)
Experiment: Displacement of [3H]WB-4101 from adrenergic alpha 1 receptor of rat cerebral cortical membranes
Assay type: cell membranes, Membrane

Ki: 2.4 µM
Structure (SMILES): CNC[C@H](O)c1ccc(O)c(O)c1 [EPINEPHRINE]
